# Test results published in article PMC8292354, “Molecular insights into the endoperoxide formation by Fe(II)/α-KG-dependent oxygenase NvfI” (Nature Communications, 2021).
# Tested on: COC(=O)[C@@H]1C(=O)C(C)=C2O[C@@]3(C[C@]2(C)[C@H]1C)[C@@H](C)CC[C@H]1C(C)(C)OC(=O)CC[C@@]13C
# Test: purified protein
# Details: 50 mM HEPES pH 7.5, 1 μM FeSO4, 500 μM ascorbate, 500 μM α-KG, 30 °C, 2 min, 0.1 μM enzyme
substance,measurement,value
NvfI (Aspergillus novofumigatus IBT 16806; Y116A),Km,19.5 ± 4.8 µM
same,kcat,0.00283 ± 0.00017 s⁻¹
